Reference: publication PMC8967206, “Pyrimidine-5-carbonitrile based potential anticancer agents as apoptosis inducers through PI3K/AKT axis inhibition in leukaemia K562” (Journal of Enzyme Inhibition and Medicinal Chemistry, 2022)

Protein sequences, listed by entry. Tags and fused reporters are not part of them. Lines headed by an entry give the natural chain unless they say otherwise; changes in a name come on top.
UniProt P48736: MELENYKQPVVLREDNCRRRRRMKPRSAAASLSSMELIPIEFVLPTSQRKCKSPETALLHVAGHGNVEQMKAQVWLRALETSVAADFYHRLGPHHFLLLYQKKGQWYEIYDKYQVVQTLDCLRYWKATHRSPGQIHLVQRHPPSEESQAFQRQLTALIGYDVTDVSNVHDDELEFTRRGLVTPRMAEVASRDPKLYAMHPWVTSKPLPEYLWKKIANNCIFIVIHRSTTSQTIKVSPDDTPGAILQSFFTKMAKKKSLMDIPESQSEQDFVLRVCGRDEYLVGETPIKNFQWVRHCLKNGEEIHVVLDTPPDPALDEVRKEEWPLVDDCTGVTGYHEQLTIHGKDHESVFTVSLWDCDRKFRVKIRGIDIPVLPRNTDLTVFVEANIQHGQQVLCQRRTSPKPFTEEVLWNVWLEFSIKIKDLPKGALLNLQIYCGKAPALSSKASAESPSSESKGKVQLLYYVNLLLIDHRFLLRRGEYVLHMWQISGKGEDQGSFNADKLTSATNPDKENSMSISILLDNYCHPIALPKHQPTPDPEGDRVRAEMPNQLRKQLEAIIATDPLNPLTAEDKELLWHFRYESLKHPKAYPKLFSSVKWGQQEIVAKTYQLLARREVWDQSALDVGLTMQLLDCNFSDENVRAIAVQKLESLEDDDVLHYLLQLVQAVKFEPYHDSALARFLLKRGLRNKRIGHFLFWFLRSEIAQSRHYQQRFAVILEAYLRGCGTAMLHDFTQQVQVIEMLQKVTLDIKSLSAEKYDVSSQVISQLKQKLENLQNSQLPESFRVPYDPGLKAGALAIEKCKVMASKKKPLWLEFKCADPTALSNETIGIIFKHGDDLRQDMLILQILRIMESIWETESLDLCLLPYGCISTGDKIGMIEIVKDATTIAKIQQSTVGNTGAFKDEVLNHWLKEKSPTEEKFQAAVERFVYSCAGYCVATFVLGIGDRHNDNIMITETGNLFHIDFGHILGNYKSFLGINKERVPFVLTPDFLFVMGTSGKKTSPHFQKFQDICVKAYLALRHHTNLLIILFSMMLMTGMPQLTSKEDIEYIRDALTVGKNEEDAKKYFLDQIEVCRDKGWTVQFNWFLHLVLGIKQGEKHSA

Biological target: T1, PI3Kγ (Homo sapiens, UniProt P48736)
T1 construct: purchased BPS Bioscience, San Diego, CA
Assay: PI3K enzyme inhibition assay (ADP-Glo), PI3Kγ
Assay type: biochemical
Conditions: mean ± SD of three experiments

IC50: 15.7 ± 0.81 µM
SMILES: O=c1cc(N2CCOCC2)oc2c(-c3ccccc3)cccc12 [LY294002, reference compound]
